According to ChEMBL document CHEMBL3627642 (Bioorg Med Chem, 2015):

Biological target: Prothrombin (Homo sapiens, UniProt P00734)
Assay: Inhibition of human thrombin using tosyl-glycyl-prolyl-arginine-4-nitranilide acetate as substrate preincubated for 10 mins by spectrophotometer analysis

- IC50: 3.88 nM
SMILES: CC1CNc2c(cccc2S(=O)(=O)N[C@@H](CCCNC(=N)N)C(=O)N2CC[C@@H](C)C[C@@H]2C(=O)O)C1 (stereo partly specified) [ARGATROBAN]
